# Test results as given in PubChem BioAssay AID1259400 (National Center for Advancing Translational Sciences (NCATS), 2018).
# Sequences of proteins named here, by UniProt entry; tags and fusion partners are left off.
# UniProt Q9HBX9, whole entry: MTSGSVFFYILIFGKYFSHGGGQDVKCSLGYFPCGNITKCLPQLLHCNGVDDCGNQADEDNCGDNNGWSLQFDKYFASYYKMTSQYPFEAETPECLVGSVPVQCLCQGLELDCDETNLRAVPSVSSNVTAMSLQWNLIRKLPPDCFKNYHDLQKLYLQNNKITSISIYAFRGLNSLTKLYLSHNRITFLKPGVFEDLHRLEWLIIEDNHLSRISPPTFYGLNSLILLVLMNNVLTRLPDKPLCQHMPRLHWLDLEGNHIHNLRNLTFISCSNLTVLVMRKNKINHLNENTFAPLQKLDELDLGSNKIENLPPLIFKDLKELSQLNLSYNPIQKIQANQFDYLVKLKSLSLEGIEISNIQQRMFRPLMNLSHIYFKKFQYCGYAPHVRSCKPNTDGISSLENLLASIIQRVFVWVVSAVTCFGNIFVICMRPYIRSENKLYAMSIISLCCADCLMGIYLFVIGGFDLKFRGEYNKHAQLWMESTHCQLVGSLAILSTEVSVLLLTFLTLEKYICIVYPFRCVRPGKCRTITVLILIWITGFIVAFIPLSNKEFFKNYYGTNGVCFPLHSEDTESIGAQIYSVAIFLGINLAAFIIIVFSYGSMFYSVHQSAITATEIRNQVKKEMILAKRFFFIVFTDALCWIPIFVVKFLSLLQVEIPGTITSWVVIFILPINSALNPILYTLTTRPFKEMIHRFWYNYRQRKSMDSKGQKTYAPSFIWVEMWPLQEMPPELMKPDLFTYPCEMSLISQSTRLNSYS
# The list shows a part of the results, in another mix than the full data. Calls of active or inactive are those of the source.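 The calls were made as follows: active = activity change of -60% or lower, but not beyond a set lower limit; inconclusive = change between -60% and -40%, or beyond the set limit; inactive = change above -40%.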
# Target: Relaxin receptor 1 (Homo sapiens) (UniProt Q9HBX9)
# Experiment: qHTS Assay for Antagonists of the Relaxin Receptor RXFP1
# Conditions: HEK293-RXFP1, relaxin-stimulated cAMP HTRF, 30 min; at 57.5 µM; active compounds read low
# From the text: The relaxin hormone is involved in the variety of biological functions in normal tissues and diseases. The role of relaxin is well-established in female reproduction and parturition, mammary gland and endometrial development, maintenance of myometrial quiescence during pregnancy. Relaxin signaling through its G protein-coupled receptor (GPCR) RXFP1 results in ECM remodeling through regulation of collagen deposition, cell invasiveness, proliferation and overall tissue homeostasis. […] Recombinant human relaxin (rhRlx) is currently being tested in clinical trials as a protective agent in congestive heart failure, in treating severe preeclampsia, and as an anti-fibrotic agent in various organs. […] Upon relaxin binding RXFP1 activation leads to the activation of adenylate cyclase (AC) via G?s. cAMP will activate PKA, which phosphorylates many signaling proteins. […] RXFP1 activation by relaxin in presence of various concentrations of tested compounds was assayed by changes in cAMP levels as detected with a time-resolved fluorescence energy transfer (TR-FRET) cAMP detection kit.
# For the primary screening, we used HTRF(R) (Homogenous Time-Resolved Fluorescence) cAMP HiRange assay (Cisbio Bioassays, 62AM6PEJ). […] The EC50 values were determined from concentration-response data modeled with the standard Hill equation. […]
# % is scaled to controls: 0 for no effect and ±100 for the full control effect.
row,Structure (SMILES),"activity change, negative = inhibition"
1,CC1CCC(C(C)C)C(OP(=O)(Nc2ccccn2)c2ccccc2)C1 (stereo unspecified),inactive: -31.1%
